## Yeast mating assay 2: variants of the scFv Ab-95

Data: MIT Lincoln Laboratory AlphaSeq set, Engelhart et al. 2022, doi:10.1038/s41597-022-01779-4, as distributed in FLAb.

Target: peptide PDVDLGDISGINAS, taken from heptad repeat 2 (HR2) of SARS-CoV-2 spike.

Parent: Ab-95, a human scFv built as VH, the linker GGGGSGGGGSGGGGS, VL. Only the CDRs of the light chain vary.
VH: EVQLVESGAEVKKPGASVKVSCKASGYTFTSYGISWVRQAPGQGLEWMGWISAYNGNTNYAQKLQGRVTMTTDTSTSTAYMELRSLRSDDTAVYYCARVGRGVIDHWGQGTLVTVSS
VL: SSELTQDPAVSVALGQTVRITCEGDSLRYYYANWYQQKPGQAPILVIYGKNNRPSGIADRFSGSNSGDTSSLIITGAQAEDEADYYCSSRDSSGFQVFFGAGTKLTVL

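Phage display of a naive human antibody library on the peptide gave the parent. The library (AAYL52) carries one to three amino acid substitutions per variant, with no insertions or deletions. The scFvs were displayed on barcoded MATa yeast, the peptide on MATalpha yeast. Binding brings cells together so that they mate, and sequencing counts the barcode pairs among the diploids. Read counts were normalised to the haploid input and turned into Kd by a linear fit to BCL2-family pairs of known affinity, for each replicate. The assay was run in three technical replicates.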

Each variant is given by its three light chain CDRs, as the data file delimits them; those of the parent are EGDSLRYYYAN, GKNNRPS, SSRDSSGFQVF. The read-out is the apparent dissociation constant on a log10 scale (nM): the lower, the stronger. Averages over replicates are reported, and they cover detected replicates only. "ND" means that the variant was in the library but no mating with the target was seen in that replicate; the authors take this as a sign of poor binding, and no number exists. Nonspecific signal, from three strains lacking the peptide, appeared in 28% of pairings of library AAYL52, centred on 3.91 (5% of these signals below 2.90); values are not corrected for it. The control count says in how many pairings with the empty strains this scFv gave a signal, with their mean in brackets. For reference, the parent read 2.31 as the reference entry and 2.25 as a member of this library.

CDR-L1,CDR-L2,CDR-L3,log10 Kd (nM) by replicate,"mean, log10 nM",signal with controls
ELDSLRYYYAN,GKNNAPS,SSRDSSTFQVF,ND ND ND,ND,1 of 9 (3.55)
CADSLRYYYAN,GKNNHPS,SSRDSSGFQVF,5.05 2.97 ND,4.01,2 of 9 (3.77)
EGDSLRYYYAN,GKNNRPS,SEKDSRGFQVF,2.77 2.36 1.59,2.24,5 of 9 (3.84)
EGDSLRYPYAM,GKNQRPS,SSRDSSGFQVF,1.81 2.21 1.77,1.93,0 of 9
EGSSLRYYYAN,VINNRPS,SSRDSSGFQVF,ND ND ND,ND,0 of 9
EGDSLRYYYAQ,GKNNRPS,SSTDSSGFQVI,ND ND ND,ND,0 of 9
EGDSLRYYYAN,KKNNRPH,SSRDLSGFQVF,4.44 ND ND,4.44,1 of 9 (4.17)
ENDSLRCRYAN,GKNNRPS,SSRDSSGFQVF,3.18 2.84 3.53,3.18,3 of 9 (3.77)
EDDSLRYWYAY,GKNNRPS,SSRDSSGFQVF,ND ND ND,ND,5 of 9 (4.32)
EGDFLRYYYAN,GFNNWPS,SSRDSSGFQVF,ND 4.27 ND,4.27,2 of 9 (3.84)
EGDSLRYYYAN,GKNNRPS,SITDSSGFWVF,3.77 2.32 3.13,3.08,2 of 9 (3.71)
EGDSLRYYYAN,GKNNRPE,SFRDSSGSQVF,2.32 2.08 1.79,2.06,4 of 9 (3.91)
EGDSARYYYAN,GKDNRPS,SSRDSSGIQVF,4.44 ND ND,4.44,1 of 9 (5.52)
ETDSLRYYYAN,GKNNRPS,SSRDSSGHQVK,3.24 3.16 3.88,3.43,1 of 9 (3.97)
EDHSLRYYVAN,GKNNRPS,SSRDSSGFQVF,3.74 ND ND,3.74,1 of 9 (2.73)
EGDSLRYYAAN,GPNNRPS,SSRDSSGFQVR,2.34 2.25 1.95,2.18,4 of 9 (3.71)
EGDSLEYYYAN,GKNNRPS,SSRDSSGCWVF,3.59 2.48 2.64,2.91,7 of 9 (3.91)
EGDSYRYYYAN,GKNNRPS,SSRDRSGFQIF,ND ND ND,ND,1 of 9 (3.82)
EGDSLRYYEAN,GKNNHPS,SSRDFSGFQVF,2.56 2.88 4.13,3.19,2 of 9 (3.70)
EGDGLRYYYAN,GKNNRPS,SSRDSSGFQFF,ND ND ND,ND,2 of 9 (3.56)
EGLSLRYYYAN,GGSNRPS,SSRDSSGFQVF,2.39 2.45 1.94,2.26,2 of 9 (4.02)
EGDVLRYYYAN,GKNNRFS,SSRDSSTFQVF,ND ND 3.46,3.46,3 of 9 (3.91)
EGDSLRQYYAN,GLNNRPS,SSRDASGFQVF,1.99 1.81 1.53,1.78,5 of 9 (4.66)
WGDSLRYYYAN,GGNCRPS,SSRDSSGFQVF,4.48 4.38 ND,4.43,4 of 9 (4.03)
EGDSLRYYYMN,GKNDRPS,SSRDSEGFQVF,ND ND 4.28,4.28,2 of 9 (3.20)
EGDSLRYYYAN,GKNNRKS,SSRDSSQNQVF,ND 2.82 3.13,2.98,2 of 9 (2.85)
EGDSLRYYYAN,GKKNRPS,SSRDSSGFMVP,ND ND 2.19,2.19,0 of 9
EGDSLRYYYAN,GKNNRPK,SSRDASGFQIF,ND 1.96 ND,1.96,0 of 9
EYDCLRYYYAN,GKNNRPS,SWRDSSGFQVF,3.57 ND ND,3.57,6 of 9 (3.97)
EGDSLRYFYAN,GKNNRPS,SSRVSSGFQVH,4.64 3.33 ND,3.99,3 of 9 (3.75)
EGDSLRCYYAN,PKNNRPS,SSRDSSGFGVF,ND 2.90 ND,2.90,1 of 9 (4.11)
EGDSLRYYYAN,GKNNRPS,SSRDGSGFQVF,2.62 2.60 1.71,2.31,2 of 9 (4.61)
HGDSSRYYYAN,DKNNRPS,SSRDSSGFQVF,ND ND 3.35,3.35,1 of 9 (2.64)
EGDSLRYYYAQ,GKNTRPS,SSSDSSGFQVF,4.09 4.57 ND,4.33,4 of 9 (4.09)
EFDSLRYYWAN,GKNNRPS,SSRDSSGFQVP,2.21 2.18 2.52,2.30,4 of 9 (4.12)
EGDSLRMYYAN,GKNNRPF,SSRDSVGFQVF,4.12 3.08 2.41,3.20,2 of 9 (4.50)
EGDSLRYYYAN,GKNKRPS,SSLDSSGFMVF,3.89 ND 3.44,3.66,0 of 9
EGDSSRYYYAN,GKNNRPS,SSRDSSGPAVF,ND ND ND,ND,2 of 9 (3.56)
EGDSMEYEYAN,GKNNRPS,SSRDSSGFQVF,2.12 2.12 2.12,2.12,2 of 9 (4.43)
EGDSLRYYYAN,GKNNRPS,SSRDYSGFDVM,1.77 2.19 1.83,1.93,1 of 9 (3.38)
TGDKLRYYYAN,GKNNRPS,SSRDSSGFWVF,3.31 ND ND,3.31,1 of 9 (2.94)
EGWSLRYYYAN,GKNNRPS,STRDSSGFQVK,3.22 3.97 3.27,3.49,4 of 9 (3.77)
EGDSLRYGYNN,GKNNRPS,SSRDGSGFQVF,1.73 1.95 1.39,1.69,3 of 9 (4.52)
EGEHLRYYYAN,GKNNRPV,SSRDSSGFQVF,2.19 2.05 1.83,2.02,5 of 9 (4.55)
EGDSLRYYYTN,GKNNRPS,SSRDVSGFQVF,2.06 2.32 1.61,2.00,3 of 9 (3.85)
EGDSLRCYYSN,GKNNRPS,SSRDSSGFQVF,4.72 3.27 2.76,3.59,1 of 9 (4.76)